Results taken from PubChem BioAssay AID624168 (Sanford-Burnham Center for Chemical Genomics, 2012).
This is a selection; strong and weak results do not stand in their true shares. Some salts and complexes are drawn in separate pieces, as the source files them; their charges need not balance. Calls of active or inactive are those of the source.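 The calls were made as follows: active = activation of at least 8% versus controls, or a plate z-score of at least 8; inactive = the rest.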

Experiment: compounds raising alpha-dystroglycan glycosylation – uHTS, Pro5-aDG cells, AlphaScreen, primary screen (AID 624168);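 also: Pro5 are CHO cells carrying HIG-tagged alpha-DG that lacks glycosylation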
Details: alpha-DG glycosylation AlphaScreen (IIH6), at 10 µM, active compounds read high, 0% Pro5, 100% B10-LARGE cell signal
In the case of `COc1ccccc1OP(C)(=O)Nc1cccc(Br)c1` (stereo not given), the activation is reported as inactive: 0%. With `COc1ccccc1-c1ccccn1.O=[N+]([O-])c1cc([N+](=O)[O-])c(O)c([N+](=O)[O-])c1` the activation was inactive: -0.3%. For `CCN(CC)CCCOC(=O)C(O)(c1ccccc1)c1ccccc1`, the activation was inactive: 0.1%. For `COc1ccc(OP(C)(=O)Nc2cccc(F)c2)cc1` (stereo not given), the activation was inactive: 0.3%. With `COc1ccccc1OP(C)(=O)Nc1cc(Cl)ccc1C` (stereo not given) the activation was inactive: 0.1%. For `Cc1cc(C)cc(OP(C)(N)=O)c1` (stereo not given), the activation was inactive: -0.1%. With `CCOC(=O)c1ccc(NP(C)(=O)Oc2ccccc2)cc1` (stereo not given) the activation was inactive: -0.1%. For `Cc1ccc(NP(C)(=O)Oc2ccccc2)c(C)c1` (stereo not given), the activation was inactive: 0%. For `COc1ccccc1OP(C)(=O)Nc1ccc(C)cc1` (stereo not given), the activation was inactive: -0.2%. For `Cc1cccc(C)c1OP(C)(N)=O` (stereo not given), the activation was inactive: 0.2%. With `CC(C)(C)c1ccc(OP(C)(=O)Nc2ccc(SC(F)(F)F)cc2)cc1` (stereo not given) the activation was inactive: 0.5%. With `O=[N+]([O-])c1ccc2c(c1)C=Nc1ccccc1O2` the activation was inactive: 0.1%. In the case of `O=[N+]([O-])c1cc([N+](=O)[O-])c(Nc2cccnc2)c([N+](=O)[O-])c1`, the activation is reported as inactive: 2.4%. With `COc1ccccc1OP(C)(=O)Nc1ccccc1` (stereo not given) the activation was inactive: -0.1%. For `CP(=O)(Nc1ccccc1Br)Oc1ccccc1` (stereo not given), the activation was inactive: -0.1%. For `CP(=S)(Nn1cnnc1)Oc1ccccc1` (stereo not given), the activation was inactive: -0.2%. In the case of `CP(=O)(Nc1ccccn1)Oc1ccc(Cl)cc1` (stereo not given), the activation is reported as inactive: 0%. With `CCOP(C)(=S)SCC(=O)NC(C)C(=O)O` (stereo not given) the activation was inactive: -0.1%. For `CCOC(=O)c1ccc(NP(C)(=O)Oc2ccc(OC)cc2)cc1` (stereo not given), the activation was inactive: -0.1%. In the case of `O=[N+]([O-])c1cc([N+](=O)[O-])c(O)c([N+](=O)[O-])c1.c1ccc(Oc2ccncc2)cc1`, the activation is reported as inactive: 0%. With `Cc1cc(C)cc(OP(C)(=O)Nc2ccc(SC(F)(F)F)cc2)c1` (stereo not given) the activation was inactive: 0%. With `CP(=O)(NC(=O)Nc1ccccc1)Oc1ccccc1` (stereo not given) the activation was inactive: -0.1%. In the case of `CCc1ccc(OP(C)(=O)N2CCN(c3ccc([N+](=O)[O-])cc3)CC2)cc1` (stereo not given), the activation is reported as inactive: 0.4%. With `CP(=O)(Oc1ccccc1)OC(c1ccccc1)C(F)(F)F` (stereo not given) the activation was inactive: 0.3%. In the case of `Cc1cccc(C)c1OP(C)(=O)Nc1ccc(SC(F)(F)F)cc1` (stereo not given), the activation is reported as inactive: 0.4%. In the case of `Cc1ccc(Nc2c([N+](=O)[O-])cc([N+](=O)[O-])cc2[N+](=O)[O-])cc1`, the activation is reported as inactive: 1.5%. With `CP(=O)(Nc1ccc(SC(F)(F)F)cc1)Oc1ccc(Cl)cc1` (stereo not given) the activation was inactive: 0%. In the case of `CN(C)C(=O)c1c([N+](=O)[O-])cc([N+](=O)[O-])cc1[N+](=O)[O-]`, the activation is reported as inactive: 4.1%. In the case of `CP(=O)(Nc1ccc(Cl)cc1)Oc1ccc(F)cc1` (stereo not given), the activation is reported as inactive: -0.1%. In the case of `COc1ccccc1OP(C)(=O)Nc1ccccc1Br` (stereo not given), the activation is reported as inactive: 0%. With `CC(C)(C)c1ccc(OP(C)(=O)O)cc1` the activation was inactive: 0.1%. For `CCc1ccc(OP(C)(=O)Nc2cccnc2)cc1` (stereo not given), the activation was inactive: 0%. With `CP(=O)(Oc1ccccc1)N1CCOC1=O` (stereo not given) the activation was inactive: 0.3%. For `O=C(OCCCN1CCCC1)C(O)(c1ccccc1)C1CCCCC1` (stereo not given), the activation was inactive: 0.1%. For `COc1ccccc1OP(C)(=O)Nc1c(C)n(C)n(-c2ccccc2)c1=O` (stereo not given), the activation was inactive: -0.1%. With `COc1ccc(OP(C)(=O)Nc2ccc(Br)cc2)cc1` (stereo not given) the activation was inactive: -0.1%. In the case of `CCN(CC)CC(O)COC(=O)C(O)(c1ccccc1)C1CCCCC1` (stereo not given), the activation is reported as inactive: 0%. In the case of `CP(=O)(OC12CC3CC(CC(C3)C1)C2)OC12CC3CC(CC(C3)C1)C2`, the activation is reported as inactive: 0.2%. With `CCOC(=O)c1ccc(NP(C)(=O)Oc2ccc(Cl)cc2)cc1` (stereo not given) the activation was inactive: 0%. In the case of `CCCCCCCCCCCCCCCC1C[N+](C)(C)CCOP(C)(=O)O1` (stereo not given), the activation is reported as inactive: 0.4%. With `CP(=O)(Nc1ccc(Cl)cc1Cl)Oc1ccccc1` (stereo not given) the activation was inactive: 1%. With `CP(=O)(OCCOc1ccccc1)OCCOc1ccccc1` the activation was inactive: -0.1%. For `COc1ccc(OP(C)(=O)Nc2ccccc2Br)cc1` (stereo not given), the activation was inactive: 0.1%. With `COc1ccccc1OP(C)(=O)Nc1ccc(C)c(C)c1` (stereo not given) the activation was inactive: 0.1%. With `Cc1cc(C)cc(OP(C)(=O)Nc2cccc(C(F)(F)F)c2)c1` (stereo not given) the activation was inactive: 1.3%. With `O=C1C(O)=C([N+](=O)[O-])C(=O)C(O)=C1[N+](=O)[O-]` the activation was inactive: 0.1%. With `CCc1ccc(OP(C)(=O)O)cc1` the activation was inactive: 0.4%. For `COc1ccccc1OP(C)(=O)Nc1ccc(C)cc1C` (stereo not given), the activation was inactive: -0.1%. With `CP(=O)(Nc1ccccn1)Oc1ccccc1` (stereo not given) the activation was inactive: -0.2%. In the case of `Cc1c(NP(C)(=O)Oc2ccc(C(C)C)cc2)c(=O)n(-c2ccccc2)n1C` (stereo not given), the activation is reported as inactive: -0.2%. In the case of `O=[N+]([O-])c1cc([N+](=O)[O-])c(Nc2ccccn2)c([N+](=O)[O-])c1`, the activation is reported as active: 12.4%. For `CN(C)CCOC(=O)C(O)(c1ccccc1)C1CCCC1` (stereo not given), the activation was inactive: 0%. In the case of `COc1ccc(OP(C)(=O)Nc2ccccn2)cc1` (stereo not given), the activation is reported as inactive: -0.1%. With `COc1ccccc1OP(C)(=O)Nc1ccc(Br)cc1` (stereo not given) the activation was inactive: -0.1%. For `COc1ccc2c(c1O)-c1c(O)c(OC)cc3c1[C@H](C2)[N+](C)(C)CC3.O=[N+]([O-])c1cc([N+](=O)[O-])c([O-])c([N+](=O)[O-])c1[O-]`, the activation was inactive: 0.2%. With `O=C(OCCN1CCN(CCOCc2ccccc2)CC1)C(O)(c1ccccc1)c1ccccc1` the activation was inactive: 0.2%. In the case of `O=C(OC1CN2CCC1CC2)c1ccc([N+](=O)[O-])cc1` (stereo not given), the activation is reported as inactive: 0.1%. With `CC(C)c1ccc(OP(C)(=O)Nc2ccc(SC(F)(F)F)cc2)cc1` (stereo not given) the activation was inactive: 0.5%. In the case of `CP(=O)(Nc1ccccc1F)Oc1ccccc1` (stereo not given), the activation is reported as inactive: -0.1%. With `O=[N+]([O-])c1cc([N+](=O)[O-])c(Nc2ccc(Cl)cc2)c([N+](=O)[O-])c1` the activation was inactive: -0.7%. For `CCCCCOc1ccc(NP(C)(=O)Oc2ccc(Cl)cc2Cl)cc1` (stereo not given), the activation was inactive: 0.2%. In the case of `O=[N+]([O-])c1cc([N+](=O)[O-])c(OC2CCCCC2O)c([N+](=O)[O-])c1` (stereo not given), the activation is reported as inactive: 0.1%. For `CP(=O)(Nc1ccccc1)Oc1ccc(F)cc1` (stereo not given), the activation was inactive: 0%. With `CCN(CC)CCCOC(=O)C(O)(c1ccccc1)C1CCCCC1` (stereo not given) the activation was inactive: 0.1%. With `Cc1c([N+](=O)[O-])cc([N+](=O)[O-])c(Br)c1[N+](=O)[O-]` the activation was inactive: 0.5%. With `COc1ccc(OP(C)(=O)Nc2ccc(SC(F)(F)F)cc2)cc1` (stereo not given) the activation was inactive: 0%. In the case of `CCOC(=O)c1ccc(NP(C)(=O)Oc2ccc(F)cc2)cc1` (stereo not given), the activation is reported as inactive: 0.1%. In the case of `CCN(CC)CCCNc1ccccc1[N+](=O)[O-].O=[N+]([O-])c1cc([N+](=O)[O-])c(O)c([N+](=O)[O-])c1`, the activation is reported as inactive: -0.2%. In the case of `Cc1c(C(c2ccc3c(c2)OCO3)c2c(C)n(C)n(-c3ccccc3)c2=O)c(=O)n(-c2ccccc2)n1C.O=[N+]([O-])c1cc([N+](=O)[O-])c(O)c([N+](=O)[O-])c1`, the activation is reported as inactive: -0.1%. With `O=[N+]([O-])c1cc([N+](=O)[O-])c(NCC2CCS(=O)(=O)C2)c([N+](=O)[O-])c1` (stereo not given) the activation was inactive: 2%. In the case of `Cc1cc(-c2cccc3ccccc23)c(C)cn1.O=[N+]([O-])c1cc([N+](=O)[O-])c(O)c([N+](=O)[O-])c1`, the activation is reported as inactive: 0.1%. In the case of `O=[N+]([O-])c1ccc(OP2(=O)COCCO2)cc1` (stereo not given), the activation is reported as inactive: -0.2%. In the case of `COc1ccc(NP(C)(=O)Oc2ccccc2OC)cc1` (stereo not given), the activation is reported as inactive: -0.1%. In the case of `CN(C)CCOC(=O)C(O)(c1ccccc1)C1CCCCC1` (stereo not given), the activation is reported as inactive: 0%. In the case of `COc1ccc(OP(C)(=O)Nc2cccc(Br)c2)cc1` (stereo not given), the activation is reported as inactive: 0.3%. For `O=[N+]([O-])c1cc([N+](=O)[O-])c(C(F)(F)F)c([N+](=O)[O-])c1O`, the activation was inactive: 0%. For `Cc1ccccc1NP(C)(=O)Nc1ccccc1C`, the activation was inactive: -0.2%. For `CP(=O)(Nc1ccc2c(c1)OCCO2)Oc1ccccc1` (stereo not given), the activation was inactive: 0.1%. For `CCOP(C)(=S)SCC(=O)NC(C)(CC)C(=O)O` (stereo not given), the activation was inactive: -0.2%. In the case of `CP(=O)(Nc1ccc(SC(F)(F)F)cc1)Oc1ccc(F)cc1` (stereo not given), the activation is reported as inactive: 0.1%.
